AlphaSeq binding of Ab-14 light chain variants to a spike HR2 peptide

Antigen: PDVDLGDISGINAS, a 14-residue peptide of the SARS-CoV-2 spike HR2 region.

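Phage display of a naive human antibody library on the peptide gave the parent. The library (AAYL50) carries one to three amino acid substitutions per variant, with no insertions or deletions. The assay is AlphaSeq: two haploid yeast populations carry antibody and antigen on their surface. Pairs that bind mate more often; barcode pairs of the diploids are counted by sequencing. The ratio of observed to expected reads was calibrated, replicate by replicate, on BCL2-family standards whose Kd was known from biolayer interferometry. There are three technical replicates.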

Each scFv is VH, a 15-residue (Gly4Ser)3 linker, VL, as in the parent Ab-14, and differs from it in the CDRs of the light chain only.
VH: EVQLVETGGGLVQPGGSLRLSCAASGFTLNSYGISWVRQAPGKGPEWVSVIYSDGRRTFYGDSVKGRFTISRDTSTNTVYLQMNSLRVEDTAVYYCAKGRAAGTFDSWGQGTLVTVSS
VL: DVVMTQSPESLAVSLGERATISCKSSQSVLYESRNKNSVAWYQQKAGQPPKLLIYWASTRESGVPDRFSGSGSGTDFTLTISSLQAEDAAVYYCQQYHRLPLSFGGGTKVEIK

Changes read parent residue, position, new residue, counted from the first residue of the VL shown.
Numbers give log10(Kd / nM), so 0 is 1 nM and 3 is 1 µM. Smaller is tighter.
"ND" means that the variant was in the library but no mating with the target was seen in that replicate; the authors take this as a sign of poor binding, and no number exists.

For S26T+V29M+Q96N, the assay gave 1.30, 1.43, 1.43 (controls 5 of 9).
For S28R+E32L+A57P, the assay gave ND, 3.62, ND (controls 4 of 9).
For S26M+N35Q+Q96G, the assay gave 1.76, 1.65, 1.94 (controls 2 of 9).
For K24T+A57L+Q96W, the assay gave ND, ND, 4.59 (controls 0 of 9).
For E32P+Q95Y+L100R, the assay gave ND, ND, ND (controls 0 of 9).
For S25C+S28T+L30G, the assay gave 1.43, 1.36, 1.27 (controls 2 of 9).
For S26L+S33F+N37T, the assay gave ND, 4.64, 6.39 (controls 4 of 9).
For S25M+W56F+P101W, the assay gave 4.44, 3.75, 3.90 (controls 4 of 9).
For V29N+Q96A+L100G, the assay gave 4.01, 3.63, ND (controls 1 of 9).
For K24N+T59H, the assay gave 1.67, 1.81, 1.89 (controls 3 of 9).
For V39F+T59N, the assay gave ND, ND, ND (controls 0 of 9).
For S26N+A40Q+L102C, the assay gave ND, ND, 4.53 (controls 1 of 9).
For E32L+V39N+S58H, the assay gave ND, ND, ND (controls 1 of 9).
For L30G+Y31H+W56C, the assay gave ND, ND, ND (controls 1 of 9).
For K24E+Y31A+K36S, the assay gave 1.49, 1.71, 1.56 (controls 2 of 9).
For L30R+A57D+P101H, the assay gave 1.80, 1.67, 2.08 (controls 0 of 9).
For N37K+S38M, the assay gave ND, 3.21, ND (controls 1 of 9).
For T59W+S62F+H98G, the assay gave 1.50, 1.92, 1.98 (controls 1 of 9).
For S26M+Y31D+S62E, the assay gave ND, ND, ND (controls 0 of 9).
For N35Q+W56D+H98P, the assay gave 4.39, ND, 6.00 (controls 2 of 9).
For L30R+R34E, the assay gave 0.36, 0.65, 0.47 (controls 3 of 9).
For L30Y+K36V+V39K, the assay gave 5.59, 3.50, 2.71 (controls 4 of 9).
For S28R+V29W+Q95P, the assay gave ND, ND, ND (controls 2 of 9).
For W56C+H98C, the assay gave 4.03, 3.68, 4.21 (controls 2 of 9).
For S25Y+S28T+A40C, the assay gave ND, 2.43, 4.87 (controls 1 of 9).
For S33P+A40D+Q95D, the assay gave ND, ND, 4.00 (controls 3 of 9).
For K24Y+S26H+S38Y, the assay gave ND, ND, ND (controls 0 of 9).
For L30K+N37D+E61K, the assay gave 3.55, 2.77, 6.06 (controls 3 of 9).
For L30H+R60N+S62F, the assay gave 3.48, ND, ND (controls 1 of 9).
For E32L+E61D+H98N, the assay gave 1.03, 1.24, 1.44 (controls 5 of 9).
For A40S+Q95N, the assay gave 3.19, ND, ND (controls 0 of 9).
For R34N+R99I, the assay gave 0.09, 0.46, 0.31 (controls 1 of 9).
For S58W+T59F+L102G, the assay gave 1.36, 1.59, ND (controls 0 of 9).
For Q27V+R60F+Q96V, the assay gave ND, 4.83, ND (controls 1 of 9).
For S33Q+R99D+L100A, the assay gave ND, ND, 3.38 (controls 2 of 9).
For L30I+Y31D+L100T, the assay gave 1.55, 1.73, 1.31 (controls 1 of 9).
For E32K+N37Y+E61R, the assay gave ND, ND, 5.52 (controls 2 of 9).
For A57T+Q95W+P101V, the assay gave ND, ND, ND (controls 1 of 9).
For K24A+L30T+W56G, the assay gave -0.50, -0.09, -0.43 (controls 1 of 9).
For Q95V+L100N+S103E, the assay gave 3.90, ND, ND (controls 1 of 9).
For Y31H+A40W+S58P, the assay gave ND, ND, ND (controls 0 of 9).
For V29K+N35Y+S58G, the assay gave ND, 3.44, ND (controls 1 of 9).

Three control strains display no target. For library AAYL50, 18% of the pairings with them gave a signal, with a median of 4.19 and one signal in twenty below 2.99, so weak values seen in few replicates may be background. For each scFv, signals with the empty controls are counted beside the result.
For reference, the parent read 0.65 as the reference entry and 1.68 as a member of this library.

Reference: Engelhart et al. 2022, doi:10.1038/s41597-022-01779-4. File: FLAb, binding data.